In patent US9433608B2 (priority 2013, dated 2016):

System: 12 mm right basal ganglia infarct (acute lacunar infarct)
Design: species or system human
Details: in vivo

SMILES: CC12CC3CC(C)(C1)CC(N)(C3)C2 [memantine, 3,5-dimethyladamantan-1-amine]
- clinical course on memantine alone: presents with a right sided leg weakness
